Sequences of proteins named here, by UniProt entry; tags and fusion partners are left off.
UniProt P41145, whole entry: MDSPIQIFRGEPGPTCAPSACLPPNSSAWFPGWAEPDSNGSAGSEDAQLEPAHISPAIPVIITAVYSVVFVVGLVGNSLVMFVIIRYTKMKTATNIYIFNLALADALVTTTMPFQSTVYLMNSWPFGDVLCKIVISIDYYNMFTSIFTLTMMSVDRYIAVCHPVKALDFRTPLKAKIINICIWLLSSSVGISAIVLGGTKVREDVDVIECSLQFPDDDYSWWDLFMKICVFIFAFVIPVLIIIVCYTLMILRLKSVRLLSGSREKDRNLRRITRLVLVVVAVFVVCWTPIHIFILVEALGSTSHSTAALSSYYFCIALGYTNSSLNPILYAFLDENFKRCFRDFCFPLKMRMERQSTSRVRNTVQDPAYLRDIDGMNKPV
UniProt P35372, whole entry: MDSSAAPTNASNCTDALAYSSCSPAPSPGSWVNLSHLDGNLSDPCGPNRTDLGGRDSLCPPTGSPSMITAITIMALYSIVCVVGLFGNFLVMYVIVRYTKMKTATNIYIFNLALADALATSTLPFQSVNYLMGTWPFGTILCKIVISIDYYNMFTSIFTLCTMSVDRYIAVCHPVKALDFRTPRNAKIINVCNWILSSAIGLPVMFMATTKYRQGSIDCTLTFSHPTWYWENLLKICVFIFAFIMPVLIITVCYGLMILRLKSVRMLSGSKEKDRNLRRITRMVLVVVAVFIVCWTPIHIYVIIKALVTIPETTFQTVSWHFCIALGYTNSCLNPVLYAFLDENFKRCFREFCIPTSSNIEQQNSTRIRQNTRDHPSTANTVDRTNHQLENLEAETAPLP

In patent US9056836B2, “Benzomorphan analogs and the use thereof” (Purdue Pharma L.P., priority 2013, dated 2015):

Experiments:
[1] = target: T1, κ opioid receptor (Homo sapiens (Human), UniProt P41145); assay: κ-opioid receptor radioligand dose-displacement binding assay ([3H]-U69,593); settings: read-out: Ki (nM) Opioid Receptor κ; binding affinity, recombinant κ opioid receptor expressed in HEK 293 cells; tested form: TFA salt
Procedure: κ-opioid Receptor Binding Assay Procedures: Membranes from recombinant HEK-293 cells expressing the human κ opioid receptor (cloned in house) were prepared by lysing cells in ice cold hypotonic buffer (2.5 mM MgCl2, 50 mM HEPES, pH 7.4) (10 mL/10 cm dish) followed by homogenization with a tissue grinder/Teflon pestle. Membranes were collected by centrifugation at 30,000× g for 15 min at 4° C. and pellets were resuspended in hypotonic buffer to a final concentration of 1-3 mg/mL. Protein concentrations were determined using the BioRad protein assay reagent with bovine serum albumen as standard. Aliquots of κ receptor membranes were stored at −80° C.
Radioligand dose displacement assays used 0.4 nM [^3]-U69,593 (GE Healthcare, Piscataway, N.J.; 40 Ci/mmole) with 15 μg membrane protein (recombinant κ opioid receptor expressed in HEK 293 cells; in-house prep) in a final volume of 200 μl binding buffer (5% DMSO, 50 mM Trizma base, pH 7.4). Non-specific binding was determined in the presence of 10 μM unlabeled naloxone or U69,593. All reactions were performed in 96-well polypropylene plates for 1 hr at a temperature of about 25° C. […] Fifty μl/well scintillation cocktail (Perkin Elmer, Shelton, Conn.) was added and plates were counted in a Packard Top-Count for 1 min/well. Data were analyzed using the sigmoidal dose-response curve fitting functions in GraphPad PRISM™ v. […]

[2] = target: T2, μ-opioid receptor (Homo sapiens (Human), UniProt P35372); assay: μ-opioid receptor radioligand dose-displacement binding assay ([3H]-diprenorphine); settings: read-out: Ki (nM) Opioid Receptor μ; binding affinity, μ-opioid receptor membranes; tested form: TFA salt
Procedure: μ-opioid Receptor Binding Assay Procedures: Radioligand dose-displacement binding assays for μ-opioid receptors used 0.3 nM [^3H]-diprenorphine (Perkin Elmer, Shelton, Conn.), with […] membrane protein/well in a final volume of 500 μl binding buffer (10 mM MgCl2, 1 mM EDTA, 5% DMSO, 50 mM HEPES, pH 7.4). Reactions were carried out in the absence or presence of increasing concentrations of unlabeled naloxone. All reactions were conducted in 96-deep well polypropylene plates for 2 hr at room temperature. Binding reactions were terminated by rapid filtration onto 96-well Unifilter GF/C filter plates (Perkin Elmer, Shelton, Conn.), presoaked in 0.5% polyethylenimine using a 96-well tissue harvester (Perkin Elmer, Shelton, Conn.) followed by performing three filtration washes with 500 μl of ice-cold binding buffer. Filter plates were subsequently dried at 50° C. for 2-3 hours. BetaScint scintillation cocktail (Perkin Elmer, Shelton, Conn.) was added (50 μl/well), and plates were counted using a Packard Top-Count for 1 min/well. The data were analyzed using the one-site competition curve fitting functions in GraphPad PRISM™ v. 3.0 or higher (San Diego. Calif.), or an in-house function for one-site competition curve-fitting.

[3] = target: T2, μ-opioid receptor; assay: μ-opioid receptor [35S]GTPγS functional assay; type: biochemical; settings: tested form: TFA salt
Procedure: μ-Opioid Receptor Functional Assay Procedures: [^35S]GTPγS functional assays were conducted using freshly thawed μ-receptor membranes (Perkin Elmer, Shelton, Conn.). Assay reactions were prepared by sequentially adding the following reagents to binding buffer (100 mM NaCl, 10 mM MgCl2, 20 mM HEPES, pH 7.4) on ice (final concentrations indicated): membrane protein (0.026 mg/mL), saponin ([…]), GDP ([…]) and [^35S]GTPγS (0.20 nM; Perkin Elmer, Shelton, Conn.). The prepared membrane solution (190 μl/well) was transferred to 96-shallow well polypropylene plates containing 10 μl of 20× concentrated stock solutions of the agonist [D-Ala^2, N-methyl-Phe^4 Gly-ol^5]-enkephalin (DAMGO) prepared in dimethyl sulfoxide (DMSO). Plates were incubated for 30 min at about 25° C. with shaking. Reactions were terminated by rapid filtration onto 96-well Unifilter GF/B filter plates (Perkin Elmer, Shelton, Conn.) using a 96-well tissue harvester (Perkin Elmer, Shelton, Conn.) followed by three filtration washes with 200 μl of ice-cold wash buffer (10 mM NaH2PO4, 10 mM Na2HPO4, pH 7.4). Filter plates were subsequently dried at 50° C. for 2-3 hr, BetaScint scintillation cocktail (Perkin Elmer, Shelton, Conn.) was added (50 μl/well) and plates were counted using a Packard Top-Count for […]. Data were analyzed using the sigmoidal dose-response curve fitting functions in GraphPad PRISM™; v. […]

[4] = target: T1, κ opioid receptor; assay: κ-opioid receptor [35S]GTPγS functional assay; settings: tested form: TFA salt
Procedure: κ-Opioid Receptor Functional Assay Procedures: Functional [^35S]GTPγS binding assays were conducted as follows, k opioid receptor membrane solution was prepared by sequentially adding final concentrations of 0.026 μg/μl κ membrane protein (in-house), 10 μg/mL saponin, 3 μM GDP and 0.20 [^35S]GTPγS to binding buffer (100 mM NaCl, 10 mM MgCl2, 20 mM HEPES, pH 7.4) on ice. The prepared membrane solution (190 μl/well) was transferred to 96-shallow well polypropylene plates containing 10 μl of 20× concentrated stock solutions of agonist prepared in DMSO. Plates were incubated for 30 min at a temperature of about 25° C. with shaking. Reactions were terminated by rapid filtration onto 96-well Unifilter GF/B filter plates (Perkin Elmer, Shelton, Conn.) using a 96-well tissue harvester (Packard) and followed by three filtration washes with 200 μl ice-cold binding buffer (10 mM NaH2PO4, 10 mM Na2HPO4, pH 7.4). Filter plates were subsequently dried at 50° C. for 2-3 hours. Fifty μl/well scintillation cocktail (Perkin Elmer, Shelton, Conn.) was added and plates were counted in a Packard Top-Count for 1 min/well. Data were analyzed using the sigmoidal dose-response curve fitting functions in GraphPad PRISM™ v. 3.0, or an in-house function for non-linear, sigmoidal dose-response curve-fitting. […]

NC(=O)CCC[C@]12CCN(CC3CC3)[C@H](Cc3ccc(O)cc31)/C2=C\C(=O)O
Ki [1]: 33.1 nM | Ki [2]: 621 nM | GTPγS μ Emax ([3]; maximal effect relative to DAMGO): 56.00 ± 5.20% | EC50 ([3]; read-out: GTPγS μ EC50, μ GTP EC50): 296 nM | GTPγS κ Emax ([4]; maximal effect relative to U69,593): 86.67 ± 2.03% | EC50 ([4]; read-out: GTPγS κ EC50, κ GTP EC50): 918 nM
